Reference: article PMC4561586 (Biochimica et biophysica acta, 2015)

Molecular target: T1, Nostoc linoleate 10S-dioxygenase (10S-DOX) (Nostoc punctiforme, UniProt B2J5P4)
T1 sequence (B2J5P4 1-542): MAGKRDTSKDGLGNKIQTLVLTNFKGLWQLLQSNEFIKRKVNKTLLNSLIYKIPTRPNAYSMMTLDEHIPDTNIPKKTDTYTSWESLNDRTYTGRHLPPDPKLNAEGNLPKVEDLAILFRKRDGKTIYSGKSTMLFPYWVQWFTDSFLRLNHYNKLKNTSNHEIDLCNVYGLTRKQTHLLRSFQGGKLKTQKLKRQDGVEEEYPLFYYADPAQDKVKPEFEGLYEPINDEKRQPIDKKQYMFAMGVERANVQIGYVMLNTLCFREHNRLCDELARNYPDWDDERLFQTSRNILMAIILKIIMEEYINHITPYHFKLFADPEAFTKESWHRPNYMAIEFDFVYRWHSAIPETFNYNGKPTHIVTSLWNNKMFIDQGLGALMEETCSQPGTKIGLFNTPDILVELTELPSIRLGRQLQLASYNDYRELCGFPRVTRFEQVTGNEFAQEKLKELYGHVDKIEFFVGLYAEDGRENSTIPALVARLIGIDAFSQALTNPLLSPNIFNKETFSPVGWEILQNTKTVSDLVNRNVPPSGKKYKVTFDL
Experiment: oxygen uptake assay, Lineweaver-Burk and Dixon plots
Type: biochemical

CCCCC/C=C/C=C/C=C/CCCCCCC(=O)O [β-CA, β-calendic acid]
Ki: 0.046 µM
